From US20050250700A1

Sequences of proteins named here, by UniProt entry; tags and fusion partners are left off. Residues count along the entry.
KDR (VEGFR-2), full-length receptor on cells (human), P35968, UniProt P35968, 20-1356: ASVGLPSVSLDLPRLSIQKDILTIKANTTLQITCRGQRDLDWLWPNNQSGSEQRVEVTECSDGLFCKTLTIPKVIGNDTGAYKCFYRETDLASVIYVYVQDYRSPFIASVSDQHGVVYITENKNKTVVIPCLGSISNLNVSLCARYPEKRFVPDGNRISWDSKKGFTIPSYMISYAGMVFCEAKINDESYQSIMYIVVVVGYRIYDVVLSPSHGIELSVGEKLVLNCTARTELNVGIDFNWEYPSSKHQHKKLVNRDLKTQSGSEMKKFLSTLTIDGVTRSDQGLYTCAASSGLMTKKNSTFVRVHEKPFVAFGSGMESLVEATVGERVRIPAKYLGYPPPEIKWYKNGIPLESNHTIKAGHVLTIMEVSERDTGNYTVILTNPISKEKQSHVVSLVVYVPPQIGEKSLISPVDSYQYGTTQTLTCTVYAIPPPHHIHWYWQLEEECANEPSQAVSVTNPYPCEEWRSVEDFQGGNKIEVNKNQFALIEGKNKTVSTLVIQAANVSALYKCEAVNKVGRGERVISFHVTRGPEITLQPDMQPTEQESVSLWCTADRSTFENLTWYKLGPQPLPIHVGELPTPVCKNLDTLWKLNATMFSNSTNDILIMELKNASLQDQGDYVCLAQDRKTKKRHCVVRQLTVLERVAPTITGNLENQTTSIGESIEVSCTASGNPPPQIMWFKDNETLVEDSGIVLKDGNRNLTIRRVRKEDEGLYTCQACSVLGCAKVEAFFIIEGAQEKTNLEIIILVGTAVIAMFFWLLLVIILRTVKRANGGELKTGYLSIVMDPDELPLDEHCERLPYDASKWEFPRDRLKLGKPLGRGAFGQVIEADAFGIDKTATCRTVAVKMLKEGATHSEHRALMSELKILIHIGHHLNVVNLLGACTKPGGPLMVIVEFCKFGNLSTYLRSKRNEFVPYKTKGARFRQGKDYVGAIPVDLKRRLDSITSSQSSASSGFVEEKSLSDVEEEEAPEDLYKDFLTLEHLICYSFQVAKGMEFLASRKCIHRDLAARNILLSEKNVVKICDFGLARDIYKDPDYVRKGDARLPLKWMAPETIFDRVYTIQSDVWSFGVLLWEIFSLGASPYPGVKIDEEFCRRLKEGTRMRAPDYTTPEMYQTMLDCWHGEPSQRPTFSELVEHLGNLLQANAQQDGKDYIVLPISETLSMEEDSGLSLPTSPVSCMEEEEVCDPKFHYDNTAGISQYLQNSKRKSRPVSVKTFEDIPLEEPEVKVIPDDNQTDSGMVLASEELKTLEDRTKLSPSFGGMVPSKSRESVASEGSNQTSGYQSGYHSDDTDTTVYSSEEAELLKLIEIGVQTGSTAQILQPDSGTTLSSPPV

Target: KDR (VEGFR-2), full-length receptor on cells (human), P35968
Settings: remark: other sources report otherwise

Kd: 14.9 nM
B1: tetrameric complex of biotinylated SEQ ID NO:264 (JJ spacer) with neutravidin-HRP (peptide)
peptide: AGPKWCEEDWYYCMITGTGGGK
modifications: here or on the partner: N-acetyl; disulfide; C-terminal Lys(Biotin-JJ)-NH2
